For this experiment, the system named is U2OS VEGF mRNA induction, RT-PCR. Kind of experiment: VEGF mRNA induction by HIF pathway activators, dose response, orthogonal assay for HIF pathway activator project, cell-based, U2OS, RT-PCR, dry powder, set 3 (AID 493230). Put shortly:
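Assay system: U2OS osteosarcoma cells / Medium: DMEM without phenol red, 10% FBS / Schedule: 24 h plating, then 24 h compound exposure at 37 °C / Technique: TaqMan RT-PCR, VEGF-A vs beta-actin / Benchmarks: DMSO control / Repeats: duplicates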

The structures appear in SMILES notation.

One molecule from PubChem BioAssay AID493230 (Broad Institute, 2011) can be followed below.

Consider `O=c1[nH]c2ccccc2n1C1CCN(Cc2ccc(O)c3ncccc23)CC1`, for which the AC40 is 935 nM.
